Sequences of proteins named here, by UniProt entry; tags and fusion partners are left off.
UniProt P33535, whole entry: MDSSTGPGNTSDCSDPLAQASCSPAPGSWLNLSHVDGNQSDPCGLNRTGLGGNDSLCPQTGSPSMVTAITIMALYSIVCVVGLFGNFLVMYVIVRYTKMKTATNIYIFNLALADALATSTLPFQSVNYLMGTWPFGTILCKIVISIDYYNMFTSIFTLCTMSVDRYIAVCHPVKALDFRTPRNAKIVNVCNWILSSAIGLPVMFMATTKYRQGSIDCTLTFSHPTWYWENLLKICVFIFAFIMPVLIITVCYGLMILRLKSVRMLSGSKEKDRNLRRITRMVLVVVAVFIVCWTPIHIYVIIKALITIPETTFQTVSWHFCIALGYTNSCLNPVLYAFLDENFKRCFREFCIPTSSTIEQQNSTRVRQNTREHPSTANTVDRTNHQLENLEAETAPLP
UniProt P33533, whole entry: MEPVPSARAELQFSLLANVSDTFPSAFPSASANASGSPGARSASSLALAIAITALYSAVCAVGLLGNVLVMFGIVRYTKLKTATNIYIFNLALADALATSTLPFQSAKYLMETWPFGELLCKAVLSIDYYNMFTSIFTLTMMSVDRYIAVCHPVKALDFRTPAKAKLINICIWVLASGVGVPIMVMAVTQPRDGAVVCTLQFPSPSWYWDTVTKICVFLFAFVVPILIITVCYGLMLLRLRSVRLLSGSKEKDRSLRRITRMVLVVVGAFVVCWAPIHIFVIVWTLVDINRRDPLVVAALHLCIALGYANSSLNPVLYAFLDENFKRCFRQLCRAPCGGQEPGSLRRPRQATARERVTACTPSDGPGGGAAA
UniProt P41145, whole entry: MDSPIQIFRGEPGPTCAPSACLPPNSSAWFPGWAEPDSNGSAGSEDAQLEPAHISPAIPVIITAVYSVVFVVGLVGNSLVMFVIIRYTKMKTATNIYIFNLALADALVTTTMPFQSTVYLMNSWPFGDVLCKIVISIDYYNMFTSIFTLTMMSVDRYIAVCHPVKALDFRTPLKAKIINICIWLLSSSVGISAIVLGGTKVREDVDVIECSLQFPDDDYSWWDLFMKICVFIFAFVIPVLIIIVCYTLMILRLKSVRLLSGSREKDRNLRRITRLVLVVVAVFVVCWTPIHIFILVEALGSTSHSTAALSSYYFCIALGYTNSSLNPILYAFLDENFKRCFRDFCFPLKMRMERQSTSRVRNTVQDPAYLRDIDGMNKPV

According to ChEMBL document CHEMBL6109111, “Structure-activity relationship analysis of meta-substituted N-cyclopropylmethyl-nornepenthones with mixed KOR/MOR activities” (Eur J Med Chem, 2025):

What was measured:
Mu-type opioid receptor = Mu-type opioid receptor (Rattus norvegicus, UniProt P33535); experiment: Displacement of [3H]-DAMGO from rat MOR expressed in CHO cell membrane assessed as inhibition constant incubated for 30 mins by liquid scintillation counting method
[1] = target: Delta-type opioid receptor (Rattus norvegicus, UniProt P33533); experiment: Displacement of [3H]-DPDPE from rat DOR expressed in CHO cell membrane assessed as inhibition constant incubated for 30 mins by liquid scintillation counting method
[2] = target: Kappa-type opioid receptor (Homo sapiens, UniProt P41145); experiment: Displacement of [3H]-U69593 from human KOR expressed in CHO cell membrane assessed as inhibition constant incubated for 30 mins by liquid scintillation counting method

SMILES	Ki (Mu-type opioid receptor) [nM]	Ki [1] [nM]	Ki [2] [nM]
COc1ccc2c3c1O[C@H]1[C@@]4(OC)C=C[C@@]5(C[C@@H]4C(=O)c4cccc(N)c4)[C@@H](C2)N(CC2CC2)CC[C@]315	2.3	330	13.6
COc1ccc2c3c1O[C@H]1[C@@]4(OC)C=C[C@@]5(C[C@@H]4C(=O)c4cccc(NC(C)=O)c4)[C@@H](C2)N(CC2CC2)CC[C@]315	2.2	184	26.6
COc1ccc2c3c1O[C@H]1[C@@]4(OC)C=C[C@@]5(C[C@@H]4C(=O)c4cccc(NC(=O)C6CC6)c4)[C@@H](C2)N(CC2CC2)CC[C@]315	10.3	50.8	141
